According to US20090226952A1, “SCREENING METHOD FOR COMPOUNDS WITH A[…]” (Isis Innovation Limited, priority 2005, published 2009):

System: in vitro hippocampal slices (Schaffer Collaterals, excitatory post-synaptic potentials)
Experiment: Electrophysiological field potential (EPSP) recordings in paired-pulse stimulated hippocampal slices
Type: cell-based, rat
Details: morphine 10-100 μM, gabapentin 100-150 μM, thiopental 80-150 μM, propofol 10-50 μM
Description: In the study, collective synchronised neuronal activity, i.e. working neuronal assemblies^3, were recorded while monitoring in parallel the underlying synaptic electrical activity (FIG. 1a). Accordingly, the use of the voltage sensitive dye, Di-4-ANEPPS, was combined with standard electrophysiological field potential recordings to measure the excitatory post-synaptic potentials (EPSPs). Under control conditions in physiological saline, electrical stimuli in a paired-pulse paradigm^18 were applied to the Schaffer Collaterals of in vitro hippocampal slices.
Following terminal anaesthesia using halothane, 400 μm transverse hippocampal slices from 2 week Wistar rats were obtained and left to rest for one hour in a high humidity chamber with oxygenated artificial cerebrospinal fluid (ACSF) (in mM: 124 NaCl, 22 NaHCO3, 10 glucose, 5 KCl, 2 CaCl2, 1.25 MgSO4, 1.25 NaH2PO4) before being submersed in dye solution (4% dye stock solution (in mM: 0.2 mM Di-4-ANEPPS (Molecular Probes, Oregon, USA) in 2.7% ethanol, 0.13% Cremaphor EL), 48% fetal bovine serum and 24% ACSF and 24% ACSF cellulose) for 25 minutes followed by a further one hour rest in the humidity chamber with oxygenated ACSF.
Electrical stimulation (paired pulse 8-10V, 60 ms interval, 0.1 ms duration) was generated by an isolated stimulator (Digitimer Ltd, UK) via a bipolar electrode (FHC, Maine, USA) and positioned just above the CA3 region. In this way, paired pulses were applied along the Shaffer Collaterals so as to elicit a spreading depolarising wave that formed from the point of stimulation and moved along the pathway towards the CA1 region. A halogen lamp provided the excitatory wavelengths for the dye (through a λ=530±10 nm filter) while the emission was captured on a 2 mm×3 mm CCD sensor (MiCAM01, BrainVision, Tokyo, Japan) through an absorption filter (λ=590 nm). Optical recordings were acquired at a rate of 0.7 ms frame^−1 for 682 frames. 16 optical recordings were averaged for each experimental condition to reduce the effects of dye bleaching and increase the signal-to-noise ratio. […]

Q: With `CN1CC[C@]23c4c5ccc(O)c4O[C@H]2[C@@H](O)C=C[C@H]3[C@H]1C5` [morphine] as the compound, how does the “paired-pulse facilitation in EPSP recordings, treatment vs control” value read?
A: no significant enhancement of facilitation

Q: And the “EPSP peak 1 value vs control” value (paired t-test n=6)?
A: significant increases

Q: What about the “EPSP peak 2 value vs control” value (paired t-test n=6) of the same compound?
A: significant increases
